Assay results: PMC4180945 (Tetrahedron, 2014)

Sequences of proteins named here, by UniProt entry; tags and fusion partners are left off. Residues count along the entry.
UniProt P98170, 241-356 limits assumed: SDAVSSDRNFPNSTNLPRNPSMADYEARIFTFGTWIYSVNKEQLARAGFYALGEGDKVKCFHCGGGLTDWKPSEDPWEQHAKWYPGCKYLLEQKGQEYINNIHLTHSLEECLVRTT
UniProt P02769, 25-607: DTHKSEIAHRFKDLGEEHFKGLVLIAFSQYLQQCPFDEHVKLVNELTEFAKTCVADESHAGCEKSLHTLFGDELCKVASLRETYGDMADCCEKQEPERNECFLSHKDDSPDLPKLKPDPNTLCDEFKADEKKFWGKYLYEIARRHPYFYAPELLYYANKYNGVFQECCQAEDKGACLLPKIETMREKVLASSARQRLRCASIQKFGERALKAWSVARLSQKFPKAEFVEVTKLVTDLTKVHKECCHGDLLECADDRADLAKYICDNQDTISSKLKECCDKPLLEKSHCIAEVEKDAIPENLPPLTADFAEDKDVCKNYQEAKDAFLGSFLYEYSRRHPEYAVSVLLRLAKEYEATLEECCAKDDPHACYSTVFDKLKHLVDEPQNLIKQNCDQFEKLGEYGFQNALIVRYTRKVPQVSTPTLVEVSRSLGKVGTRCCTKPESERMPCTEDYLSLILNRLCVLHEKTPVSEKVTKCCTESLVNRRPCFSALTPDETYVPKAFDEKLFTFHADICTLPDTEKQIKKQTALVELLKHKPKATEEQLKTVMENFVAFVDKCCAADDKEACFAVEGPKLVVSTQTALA

Key:
[1] = target: T1, GST-SHD SH2 domain fusion protein (Homo sapiens, UniProt Q96IW2); test: Selectivity binding to arbitrarily selected protein: GST-SHD SH2; settings: read-out: KD for GST-SHD SH2
T1 sequence (Q96IW2 240-335 limits assumed): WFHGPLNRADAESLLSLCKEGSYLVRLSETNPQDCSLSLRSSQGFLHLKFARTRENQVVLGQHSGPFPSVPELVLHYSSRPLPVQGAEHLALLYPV

[2] = target: maltose-binding protein-XIAP BIR3 domain fusion (MBP-BIR3) (Homo sapiens, UniProt P98170); test: Selectivity binding to arbitrarily selected protein: MBP-BIR3; settings: read-out: KD for MBP-BIR3
[3] = target: bovine serum albumin (BSA) (Bos taurus, UniProt P02769); test: Selectivity binding to arbitrarily selected protein: BSA

Measured: Kd

Trp-phe-Asp-Lys-phe-asn-His-Dap [Peptide 38]
23 to 57 µM: [1] | [2] | [3]
